Source: patent US20240425457A1, “COMPOSITIONS AND METHODS FOR SUPPRESSING AND/OR TREATING METABOLIC DISEASES AND/OR A CLINICAL CONDITION THEREOF” (CK Biotech Inc., priority 2018, published 2024)

Test system: Wnt/β-catenin signaling
Assay: Wnt/β-catenin signaling (TOPFlash) reporter luciferase assay in HEK293-TOP cells
Format: cell-based
Procedure: Luciferase reporter assay. HEK293-TOP cells were seeded in 24-well plates. Cells were treated with A3334 at a concentration of 1, 5, and 10 μM for 24 h. Total cell lysates were extracted with 35 μl of 5× Reporter Lysis Buffer per well according to the manufacturer's instructions (Promega). A total of 35 μl of luciferin was added and luciferase activity was measured using a Fluorstar Optima microplate reader.
Wnt/β-catenin signaling reporter luciferase assay. HEK293-TOP cells were seeded were seeded in 96-well plates at a density of 2.5×10^4 cells per well. Cells were treated with individual chemicals at a concentration of 1, 5, 10 µM for 24 h. Total cell lysates were extracted with 25 µl of 5× Reporter Lysis Buffer per well according to the manufacturer's instruction (Promega, Madison, WI). Luciferin (25 µl) was added and luciferase activity was measured using FLUOSTAR (BMG labtech, Offenburg, Germany).

O=C1Nc2cc(Br)ccc2/C1=C1/Nc2ccccc2/C1=N\O [Compound 8, 6-bromoindirubine-3′-oxime]
Wnt/β-catenin (TOPFlash) reporter activity: showed effectiveness in the activation of Wnt/β-catenin pathway
